Experimental data as given in US20170119760A1 (AB SCIENCE, priority 2015, published 2017).

Columns and labels:
[1] = test system: tyrosine hydroxylase expression; test: MPTP mouse model: tyrosine hydroxylase western blotting of total brain protein extract; details: MPTP alone (4 × 20 mg/kg), solvent treated, control = 100
[2] = test system: tyrosine hydroxylase expression; test: MPTP mouse model: tyrosine hydroxylase ELISA assay of total brain protein extract; details: MPTP alone

Structure (SMILES): CN1CC=C(c2ccccc2)CC1 [MPTP, 1-methyl-4-phenyl-1,2,3,6-tetrahydropyridine, reference compound]
- Relative average expression of tyrosine hydroxylase [1]: 77
- tyrosine hydroxylase expression after MPTP treatment with respect to control [2]: significant decrease
